# Measured values from patent US7445790B2, “External preparations for skin” (Shiseido Company, Ltd., priority 2002, dated 2008).
# Experiment: Solubility of a slightly soluble triazine-type ultraviolet absorbent in oil components at 0° C.
# Type: physicochemical
# Details: concentration (mass percentage) in a saturated solution at 0° C. of 2,4-bis{[4-(2-ethylhexyloxy)-2-hydroxy]phenyl}-6-(4-methoxyphenyl)1,3,5-triazine in the oil component
# Description: (§1) For the slightly soluble ultraviolet absorbent, a triazine-type ultraviolet absorbent 2,4-bis{[4-(2-ethylhexyloxy)-2-hydroxy]phenyl}-6-(4-methoxyphenyl)1,3,5-triazine was used.
# This oil component is a mixture of alkyl benzoates having 12-15 carbon atoms.
# as §1
substance,measurement,setting,value
Pentaerythrite tetra (2-ethylhexanoate/paramethoxycinnamate),Solubility,Table 1-4,4%
same,Solubility,Table 2-1,4%
